Laboratory results as given in patent US9216999B2, “Substituted pyrrolo[2,3-h][1,6]naphthyridines and compositions thereof as JAK inhibitors” (priority 2011, dated 2015).

By UniProt entry, the sequences of proteins in these tests, tags left out. Where a name states a change or a piece, a line headed by the entry shows the natural chain unless it says otherwise.
UniProt P29597: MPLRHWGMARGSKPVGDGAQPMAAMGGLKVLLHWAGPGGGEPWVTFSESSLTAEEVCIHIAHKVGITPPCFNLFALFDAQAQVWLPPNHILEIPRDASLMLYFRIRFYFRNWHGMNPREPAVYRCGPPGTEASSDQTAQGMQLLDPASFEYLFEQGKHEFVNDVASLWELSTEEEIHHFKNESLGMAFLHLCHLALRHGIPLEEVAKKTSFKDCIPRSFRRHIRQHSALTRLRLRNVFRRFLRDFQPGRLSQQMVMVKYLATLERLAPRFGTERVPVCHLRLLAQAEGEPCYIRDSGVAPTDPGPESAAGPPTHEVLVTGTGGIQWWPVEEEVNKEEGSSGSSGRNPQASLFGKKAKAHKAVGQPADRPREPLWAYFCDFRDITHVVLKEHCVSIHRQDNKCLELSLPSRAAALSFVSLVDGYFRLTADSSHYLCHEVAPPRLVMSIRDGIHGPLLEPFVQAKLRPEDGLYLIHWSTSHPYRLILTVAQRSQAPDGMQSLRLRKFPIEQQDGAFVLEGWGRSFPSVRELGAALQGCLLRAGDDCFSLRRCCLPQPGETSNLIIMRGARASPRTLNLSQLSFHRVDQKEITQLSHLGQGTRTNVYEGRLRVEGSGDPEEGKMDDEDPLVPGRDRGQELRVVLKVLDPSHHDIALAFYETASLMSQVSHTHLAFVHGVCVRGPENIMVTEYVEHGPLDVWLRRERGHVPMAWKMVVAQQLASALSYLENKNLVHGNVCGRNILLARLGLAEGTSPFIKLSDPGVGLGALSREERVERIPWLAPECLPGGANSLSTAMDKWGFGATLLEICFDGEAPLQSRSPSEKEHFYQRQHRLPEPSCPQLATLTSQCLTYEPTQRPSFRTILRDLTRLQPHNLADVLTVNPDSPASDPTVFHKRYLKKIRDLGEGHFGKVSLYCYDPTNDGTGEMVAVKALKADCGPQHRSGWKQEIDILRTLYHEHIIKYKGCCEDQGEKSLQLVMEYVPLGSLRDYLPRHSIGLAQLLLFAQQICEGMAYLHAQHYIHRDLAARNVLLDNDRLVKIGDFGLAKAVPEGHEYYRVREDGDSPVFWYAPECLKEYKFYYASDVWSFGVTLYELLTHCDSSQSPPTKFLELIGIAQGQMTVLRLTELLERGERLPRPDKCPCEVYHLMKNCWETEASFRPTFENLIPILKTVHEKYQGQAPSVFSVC
UniProt P52333: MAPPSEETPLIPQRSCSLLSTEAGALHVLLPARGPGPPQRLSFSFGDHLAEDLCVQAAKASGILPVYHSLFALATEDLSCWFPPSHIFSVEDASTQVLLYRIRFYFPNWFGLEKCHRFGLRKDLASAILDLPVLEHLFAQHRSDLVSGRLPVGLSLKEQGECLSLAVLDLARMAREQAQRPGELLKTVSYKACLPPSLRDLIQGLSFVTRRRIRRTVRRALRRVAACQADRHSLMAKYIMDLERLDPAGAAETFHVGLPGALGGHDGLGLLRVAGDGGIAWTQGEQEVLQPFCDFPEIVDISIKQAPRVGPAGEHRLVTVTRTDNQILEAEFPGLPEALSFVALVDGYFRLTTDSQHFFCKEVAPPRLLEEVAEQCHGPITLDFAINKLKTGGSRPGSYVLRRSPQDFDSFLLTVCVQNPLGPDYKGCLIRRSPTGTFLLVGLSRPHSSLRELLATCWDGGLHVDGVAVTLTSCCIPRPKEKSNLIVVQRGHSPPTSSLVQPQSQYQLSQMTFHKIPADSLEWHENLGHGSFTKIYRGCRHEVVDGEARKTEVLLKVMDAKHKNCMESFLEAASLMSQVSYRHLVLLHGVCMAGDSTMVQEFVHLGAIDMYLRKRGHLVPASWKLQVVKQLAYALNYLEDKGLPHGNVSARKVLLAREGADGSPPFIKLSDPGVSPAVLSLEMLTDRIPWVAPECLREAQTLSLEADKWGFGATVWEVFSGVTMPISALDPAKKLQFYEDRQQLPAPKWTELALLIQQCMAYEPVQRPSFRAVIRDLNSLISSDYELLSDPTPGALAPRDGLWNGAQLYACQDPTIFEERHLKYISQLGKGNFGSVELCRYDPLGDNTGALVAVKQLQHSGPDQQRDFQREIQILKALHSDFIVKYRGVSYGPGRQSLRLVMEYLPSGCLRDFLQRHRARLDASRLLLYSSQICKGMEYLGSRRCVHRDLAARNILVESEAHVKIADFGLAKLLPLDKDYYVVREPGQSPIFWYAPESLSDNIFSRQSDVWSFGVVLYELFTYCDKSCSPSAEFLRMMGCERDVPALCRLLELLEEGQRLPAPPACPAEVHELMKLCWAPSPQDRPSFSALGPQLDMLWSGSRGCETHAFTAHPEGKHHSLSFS

How the values were obtained:
[1] = molecular target: T1, JAK2 (Homo sapiens (Human), UniProt O60674); assay: Enzyme assay (Assay Example^a 1), JAK2; format: biochemical; settings: for IC50: read-out: IC50 (μM) JAK2
[2] = molecular target: T2, Tyk2 (Homo sapiens (Human), UniProt P29597); assay: Enzyme assay (Assay Example^a 1), Tyk2; format: biochemical; settings: for IC50: ATP 100 μM, read-out: IC50 (μM) TYK2
[3] = molecular target: T3, JAK3 (Homo sapiens (Human), UniProt P52333); assay: JAK3 enzyme assay (Assay Example^b 1); settings: ATP 100 μM
[4] = molecular target: T1, JAK2; assay: JAK2 enzyme assay (Assay Example^b 1)
[5] = molecular target: T2, Tyk2; assay: Tyk2 enzyme assay (Assay Example^b 1)
[6] = molecular target: T4, JAK1 (Homo sapiens (Human), UniProt P23458); assay: JAK1 enzyme assay (Assay Example^b 1)
[7] = molecular target: T3, JAK3; assay: Enzyme assay (Assay Example^a 1), JAK3; format: biochemical; settings: for IC50: read-out: IC50 (μM) JAK3
[8] = molecular target: T4, JAK1; assay: Enzyme assay (Assay Example^a 1), JAK1; format: biochemical; settings: for IC50: ATP 100 μM, Table^a 154, read-out: IC50 (μM) JAK1
[9] = IC50 (μM) JAK2, Table^b 80, ATP 100 μM
[10] = IC50 (μM) TYK2, Table^b 80, ATP 100 μM
[11] = IC50 (μM) JAK1, Table^b 80, ATP 100 μM
[12] = IC50 (μM) TYK2, Table^b 79, ATP 100 μM
[13] = IC50 (μM) JAK1, Table^b 78, ATP 100 μM

In the case of `c1cc(CN2CCC(c3nnn4cnc5[nH]ccc5c34)CC2)[nH]n1` [compound 151], the IC50 [1] was 0.072 µM and the IC50 ([2]; Table^a 154) was greater than 1 µM.

With `C[C@@H]1CCN(Cc2ccc(C(F)(F)F)cc2)C[C@@H]1n1ccc(=O)c2cnc3[nH]ccc3c21` (racemic) [compound 40] the IC50 ([3]; IC50 (μM) JAK3, Table^b 80) was 0.26 µM, the IC50 ([4]; IC50 (μM) JAK2) was 0.5 µM and the IC50 ([5]; IC50 (μM) TYK2) was greater than 1 µM. It also gave an IC50 ([6]; IC50 (μM) JAK1) of 0.088 µM.

In the case of `Fc1ccc(CN2CCC(c3nnn4cnc5[nH]ccc5c34)CC2)cc1C(F)(F)F` [compound 154], the IC50 [1] was 0.024 µM and the IC50 ([2]; Table^a 154) was 0.7 µM.

`OC(CNC[C@H]1CC[C@H](c2nnn3cnc4[nH]ccc4c23)CC1)c1ccccc1` (mixture of isomers) [compound 186, 2-({[trans-4-(7H-pyrrolo[3,2-e][1,2,3]triazolo[1,5-c]pyrimidin-1-yl)cyclohexyl]methyl}amino)-1-phenylethanol] was tested, and the pIC50 [7] was 7.00.

`c1cc2c(ncn3nnc(C4CCC(NCCN5CCOCC5)CC4)c23)[nH]1` (stereo not shown) [compound 126] showed an IC50 [1] greater than 1 µM and an IC50 ([2]; Table^a 154) greater than 1 µM.

`C[C@@H]1CCN(C(=O)Nc2ccccc2C(F)(F)F)C[C@@H]1n1ccc(=O)c2cnc3[nH]ccc3c21` (racemic) [compound 28] showed an IC50 ([3]; IC50 (μM) JAK3, Table^b 80) of 2.3 µM, an IC50 [4, 9] of 2 µM and an IC50 [5, 10] of 7.9 µM. It also gave an IC50 [6, 11] of 0.31 µM.

For `OC(CN[C@H]1CC[C@H](c2nnn3cnc4[nH]ccc4c23)CC1)(c1ccccc1)C(F)(F)F` (mixture of isomers) [196b, 3-{[trans-4-(7H-pyrrolo[3,2-e][1,2,3]triazolo[1,5-c]pyrimidin-1-yl)cyclohexyl]amino}-1,1,1-trifluoro-2-phenylpropan-2-ol], the pIC50 [7] was 6.54.

`FC1(F)CCN(C[C@H]2CC[C@H](c3nnn4cnc5[nH]ccc5c34)CC2)CC1` [compound 97] showed an IC50 [1] of 0.1 µM, an IC50 ([2]; Table^a 154) greater than 1 µM and an IC50 [8] of 0.021 µM.

`C[C@@H]1CCN(C(=O)c2cccc(C(F)(F)F)c2)C[C@@H]1n1ccc(=O)c2cnc3[nH]ccc3c21` (racemic) [compound 31] showed an IC50 [4, 9] greater than 1 µM, an IC50 [5, 10] greater than 1 µM and an IC50 [6, 11] of 0.24 µM.

`c1csc(CN2CCC(c3nnn4cnc5[nH]ccc5c34)CC2)c1` [compound 148] showed an IC50 [1] of 0.01 µM, an IC50 ([2]; Table^a 154) of 0.21 µM and an IC50 [8] of 0.0043 µM.

Molecule `c1ccc(CN2CCC(c3nnn4cnc5[nH]ccc5c34)CC2)cc1` [compound 32] has an IC50 [1] of 0.036 µM and an IC50 ([2]; Table^a 154) of 0.99 µM.

`N#Cc1ccc(CNC[C@H]2CC[C@H](c3nnn4cnc5[nH]ccc5c34)CC2)cc1` [compound 93] showed an IC50 [1] of 0.061 µM and an IC50 ([2]; Table^a 154) of 0.0059 µM.

For `OC(CN[C@H]1CC[C@H](c2nnn3cnc4[nH]ccc4c23)CC1)c1ccccc1` (mixture of isomers) [202b, 2-{[trans-4-(7H-pyrrolo[3,2-e][1,2,3]triazolo[1,5-c]pyrimidin-1-yl)cyclohexyl]amino}-1-phenylethanol], the pIC50 [7] was 6.17.

Work on `N#CCC(=O)N1CCCC(c2ncn3cnc4[nH]ccc4c23)C1` (racemic) [compound 4] yielded a pIC50 [1] of 7.59, a pIC50 [2] of 6.64 and a pIC50 [8] of 7.89.

`CCOC(=O)N1CC[C@@H](C)[C@@H](n2ccc(=O)c3cnc4[nH]ccc4c32)C1` (racemic) [compound 27] gave an IC50 ([3]; IC50 (μM) JAK3, Table^b 80) of 0.042 µM, an IC50 ([4]; IC50 (μM) JAK2) of 0.04 µM and an IC50 ([5]; IC50 (μM) TYK2) of 0.43 µM. It also gave an IC50 ([6]; IC50 (μM) JAK1) of 0.018 µM.

For `C[C@@H]1CCN(C(=O)OCc2ccccc2)C[C@@H]1n1ccc(=O)c2cnc3[nH]ccc3c21` (racemic) [compound 35], the IC50 [4, 9] was 0.089 µM, the IC50 [5, 10] was 0.99 µM and the IC50 [6, 11] was 0.018 µM.

For `O[C@H]1CC[C@@H](c2nnn3cnc4[nH]ccc4c23)CC1` [compound 83], the IC50 [1] was 0.048 µM, the IC50 ([2]; Table^a 154) was 0.096 µM and the IC50 [8] was 0.0091 µM.

Molecule `Cc1cc(NC(=O)N2CCC(c3nnn4cnc5[nH]ccc5c34)CC2)sn1` [compound 31] has an IC50 [1] of 0.21 µM and an IC50 ([2]; Table^a 154) greater than 1 µM.

`FC(F)(F)c1ccc(CN2CCC(c3nnn4cnc5[nH]ccc5c34)CC2)o1` [compound 143] was tested, and the IC50 [1] was 0.0056 µM, the IC50 ([2]; Table^a 154) was 0.12 µM and the IC50 [8] was 0.0025 µM.

`OC[C@H]1CC[C@@H](c2nnn3cnc4[nH]ccc4c23)CC1` [compound 401, [cis-4-(7H-Pyrrolo[3,2-e][1,2,3]triazolo[1,5-c]pyrimidin-1-yl)cyclohexyl]methanol] was tested, and the IC50 [2] was 0.15 µM and the IC50 [7] was 0.36 µM.

`N#CCCNC[C@H]1CC[C@H](c2nnn3cnc4[nH]ccc4c23)CC1` [compound 90] gave an IC50 [1] of 0.026 µM, an IC50 ([2]; Table^a 154) of 0.044 µM and an IC50 [8] of 0.0047 µM.

`O[C@H]1CC[C@H](c2nnn3cnc4[nH]ccc4c23)CC1` [compound 81] was tested, and the IC50 [1] was 0.053 µM, the IC50 ([2]; Table^a 154) was 0.15 µM and the IC50 [8] was 0.012 µM.

With `c1ccc(CCNC2CCC(c3nnn4cnc5[nH]ccc5c34)CC2)cc1` (stereo not shown) [compound 123] the IC50 [1] was 0.19 µM, the IC50 ([2]; Table^a 154) was 0.23 µM and the IC50 [7] was 0.87 µM.

`O=c1ccn(C2CCN(Cc3ccc(Cl)c(Cl)c3)CC2)c2c1cnc1[nH]ccc12` [compound 75] showed an IC50 [4, 9] of 0.062 µM, an IC50 [5, 10] greater than 1 µM and an IC50 [6, 11] of 0.0089 µM.

`c1ccc(CCN[C@H]2CC[C@H](c3nnn4cnc5[nH]ccc5c34)CC2)cc1` [135b] gave an IC50 [8] of 0.0063 µM and an IC50 [7] greater than 1 µM.

`C[C@@H]1CCN(Cc2ccccc2)C[C@@H]1n1ccc(=O)c2cnc3[nH]ccc3c21` (racemic) [compound 4] was tested, and the IC50 ([4]; IC50 (μM) JAK2) was 0.1 µM, the IC50 [5, 12] was greater than 1 µM and the IC50 [6, 13] was 0.03 µM.

For `C[C@@H]1CCN(Cc2ccc(C#N)cc2)C[C@@H]1n1ccc(=O)c2cnc3[nH]ccc3c21` (racemic) [compound 44], the IC50 ([3]; IC50 (μM) JAK3, Table^b 80) was 0.057 µM, the IC50 [4, 9] was 0.15 µM and the IC50 [5, 10] was 0.84 µM. For the same molecule, the IC50 [6, 11] was 0.014 µM.

In the case of `OC[C@H]1CC[C@H](c2nnn3cnc4[nH]ccc4c23)CC1` [compound 141], the IC50 [1] was 0.014 µM, the IC50 ([2]; Table^a 154) was 0.038 µM and the IC50 [8] was 0.0028 µM.

Work on `OC(CN1CCC(c2nnn3cnc4[nH]ccc4c23)CC1)c1ccc(C(F)(F)F)cc1` (racemic) [compound 212, 2-[4-(7H-Pyrrolo[3,2-e][1,2,3]triazolo[1,5-c]pyrimidin-1-yl)piperidin-1-yl]-1-[4-(trifluoromethyl)phenyl]ethanol] yielded a pIC50 [7] of 6.21.

`C1=NCc2cnc3[nH]ccc3c2N1C1CCCCC1` [compound 19] showed an IC50 ([3]; IC50 (μM) JAK3, Table^b 78) of 2.2 µM, an IC50 ([4]; IC50 (μM) JAK2, Table^b 79, ATP 100 μM) of 1.3 µM and an IC50 [5, 12] of 1.5 µM. The IC50 [6, 13] was 0.29 µM.

For `CC1(C)CN(C[C@H]2CC[C@H](c3nnn4cnc5[nH]ccc5c34)CC2)C1` [compound 96], the IC50 [1] was 0.21 µM, the IC50 ([2]; Table^a 154) was greater than 1 µM and the IC50 [8] was 0.027 µM. It also gave an IC50 [7] greater than 1 µM.

For `FC(F)(F)c1ccc(NC2CCC(c3nnn4cnc5[nH]ccc5c34)CC2)cc1` (stereo not shown) [compound 128], the IC50 [7] was greater than 1 µM.

In the case of `O=c1ccn(C2CCN(Cc3ccc(F)c(F)c3)CC2)c2c1cnc1[nH]ccc12` [compound 74], the IC50 ([3]; IC50 (μM) JAK3, Table^b 80) was 0.86 µM, the IC50 [4, 9] was 0.069 µM and the IC50 [5, 10] was 0.84 µM. For the same molecule, the IC50 [6, 11] was 0.005 µM.

Work on `O=c1ccn(C2CCN(Cc3ccc(Cl)s3)CC2)c2c1cnc1[nH]ccc12` [compound 55] yielded an IC50 [4, 9] of 0.02 µM, an IC50 [5, 10] of 0.22 µM and an IC50 [6, 11] of 0.0012 µM.

With `c1ccc(CCN[C@H]2CC[C@@H](c3nnn4cnc5[nH]ccc5c34)CC2)cc1` [135a] the IC50 ([2]; Table^a 154) was greater than 1 µM, the IC50 [8] was 0.097 µM and the IC50 [7] was greater than 1 µM.

`Cc1noc(C)c1CN1CCC(c2nnn3cnc4[nH]ccc4c23)CC1` [compound 36] was tested, and the IC50 [1] was 0.18 µM, the IC50 ([2]; Table^a 154) was greater than 1 µM and the IC50 [8] was 0.073 µM.

In the case of `CN(C[C@H]1CC[C@H](c2nnn3cnc4[nH]ccc4c23)CC1)c1ccc(F)cc1` [compound 102], the IC50 [1] was 0.15 µM, the IC50 ([2]; Table^a 154) was greater than 1 µM and the IC50 [8] was 0.019 µM. For the same molecule, the IC50 [7] was greater than 1 µM.

With `O=C(c1ccc(C(F)(F)F)cc1)N1CCC(c2nnn3cnc4[nH]ccc4c23)CC1` [compound 58] the IC50 [1] was 0.82 µM, the IC50 ([2]; Table^a 154) was greater than 1 µM and the IC50 [8] was 0.18 µM.

In the case of `O=S(=O)(C[C@H]1CC[C@H](c2nnn3cnc4[nH]ccc4c23)CC1)c1ccccc1` [compound 364, 1-{trans-4-[(phenylsulfonyl)methyl]cyclohexyl}-7H-pyrrolo[3,2-e][1,2,3]triazolo[1,5-c]pyrimidine], the IC50 [2] was 0.21 µM and the pIC50 [7] was 6.41.

`O=c1ccn(C2CCN(Cc3ccc4[nH]ccc4c3)CC2)c2c1cnc1[nH]ccc12` [compound 85] was tested, and the IC50 [4, 9] was 0.68 µM, the IC50 [5, 10] was greater than 1 µM and the IC50 [6, 11] was 0.075 µM.

With `FC(F)(F)c1ccc(CN2CCCC(c3nnn4cnc5[nH]ccc5c34)C2)cc1` (racemic) [compound 23] the IC50 ([2]; Table^a 154) was greater than 1 µM and the pIC50 [7] was less than 6.00.

Work on `OC[C@H]1CC[C@H](c2nnn3cnc4[nH]ccc4c23)CC1` [compound 10] yielded an IC50 [2] of 0.037 µM and an IC50 [7] of 0.19 µM.

`FC(F)(F)Oc1ccc(NC[C@H]2CC[C@H](c3nnn4cnc5[nH]ccc5c34)CC2)c(Cl)c1` [compound 115] was tested, and the IC50 [1] was 0.4 µM, the IC50 ([2]; Table^a 154) was greater than 1 µM and the IC50 [8] was 0.13 µM.

`c1cc2c(ncn3nnc(C4CCCNC4)c23)[nH]1` (racemic) [compound 15] showed a pIC50 [7] of 5.37.

`OC(CN[C@H]1CC[C@@H](c2nnn3cnc4[nH]ccc4c23)CC1)(c1ccccc1)C(F)(F)F` (mixture of isomers) [196a, 3-{[cis-4-(7H-pyrrolo[3,2-e][1,2,3]triazolo[1,5-c]pyrimidin-1-yl)cyclohexyl]amino}-1,1,1-trifluoro-2-phenylpropan-2-ol] showed a pIC50 [7] of less than 6.00.

pIC50: −log10 of the molar value.
